According to PubChem BioAssay (Tox21):
Several values for one entry are separate records, joined by “and”; a condition that tells them apart may be missing. Equal values may be shown once. This is a selection; strong and weak results do not stand in their true shares. Results filed as inconclusive are left out. Activity calls are given as the source filed them. Unless noted, calls follow the shape of the full dose curve.

Chains of the proteins cited; added tags and fusions are not shown. Lines headed by an entry give the natural chain unless they say otherwise; changes in a name come on top.
UniProt P10275: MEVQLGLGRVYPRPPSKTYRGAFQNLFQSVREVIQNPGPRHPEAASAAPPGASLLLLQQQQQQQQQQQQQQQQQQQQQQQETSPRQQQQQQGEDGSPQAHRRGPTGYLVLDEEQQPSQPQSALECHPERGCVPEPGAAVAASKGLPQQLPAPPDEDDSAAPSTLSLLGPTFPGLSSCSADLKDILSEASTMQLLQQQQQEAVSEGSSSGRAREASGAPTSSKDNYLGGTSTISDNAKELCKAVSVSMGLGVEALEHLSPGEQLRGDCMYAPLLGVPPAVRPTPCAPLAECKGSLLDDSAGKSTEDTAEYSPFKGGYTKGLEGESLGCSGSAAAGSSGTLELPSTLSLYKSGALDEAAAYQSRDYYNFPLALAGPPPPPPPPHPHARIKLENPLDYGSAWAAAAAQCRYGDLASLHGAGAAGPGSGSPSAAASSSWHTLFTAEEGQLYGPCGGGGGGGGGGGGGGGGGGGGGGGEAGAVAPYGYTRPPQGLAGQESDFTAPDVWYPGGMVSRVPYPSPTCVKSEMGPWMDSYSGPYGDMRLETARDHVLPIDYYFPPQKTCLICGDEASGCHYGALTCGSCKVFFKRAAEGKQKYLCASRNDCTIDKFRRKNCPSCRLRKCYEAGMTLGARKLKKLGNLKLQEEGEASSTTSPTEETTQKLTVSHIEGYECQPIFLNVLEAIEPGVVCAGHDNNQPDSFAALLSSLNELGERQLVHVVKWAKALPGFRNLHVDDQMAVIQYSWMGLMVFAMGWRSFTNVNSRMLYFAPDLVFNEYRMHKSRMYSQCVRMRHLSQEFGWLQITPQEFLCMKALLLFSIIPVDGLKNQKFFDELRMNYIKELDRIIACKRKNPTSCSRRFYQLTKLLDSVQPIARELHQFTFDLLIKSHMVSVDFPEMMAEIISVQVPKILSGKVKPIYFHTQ
UniProt P16473, whole entry, looked up: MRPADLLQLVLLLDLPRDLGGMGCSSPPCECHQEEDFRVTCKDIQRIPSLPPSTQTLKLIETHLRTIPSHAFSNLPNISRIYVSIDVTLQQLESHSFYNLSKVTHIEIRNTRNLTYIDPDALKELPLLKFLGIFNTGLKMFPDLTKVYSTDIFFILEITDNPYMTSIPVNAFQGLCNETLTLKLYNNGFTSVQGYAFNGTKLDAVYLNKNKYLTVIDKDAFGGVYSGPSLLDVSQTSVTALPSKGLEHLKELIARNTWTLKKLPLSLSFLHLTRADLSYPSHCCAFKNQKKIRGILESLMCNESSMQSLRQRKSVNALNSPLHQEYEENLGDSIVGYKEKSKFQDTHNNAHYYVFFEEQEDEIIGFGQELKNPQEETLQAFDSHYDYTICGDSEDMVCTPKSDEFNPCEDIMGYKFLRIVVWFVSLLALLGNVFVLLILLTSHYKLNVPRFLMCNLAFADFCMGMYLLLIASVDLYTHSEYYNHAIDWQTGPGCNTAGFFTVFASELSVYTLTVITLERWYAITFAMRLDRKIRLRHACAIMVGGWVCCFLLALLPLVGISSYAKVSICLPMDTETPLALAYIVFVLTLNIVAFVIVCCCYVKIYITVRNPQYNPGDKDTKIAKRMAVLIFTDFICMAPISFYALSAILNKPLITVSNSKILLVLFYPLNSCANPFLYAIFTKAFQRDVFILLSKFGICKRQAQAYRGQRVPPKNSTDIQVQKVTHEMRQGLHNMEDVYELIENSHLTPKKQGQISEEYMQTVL
UniProt P06401: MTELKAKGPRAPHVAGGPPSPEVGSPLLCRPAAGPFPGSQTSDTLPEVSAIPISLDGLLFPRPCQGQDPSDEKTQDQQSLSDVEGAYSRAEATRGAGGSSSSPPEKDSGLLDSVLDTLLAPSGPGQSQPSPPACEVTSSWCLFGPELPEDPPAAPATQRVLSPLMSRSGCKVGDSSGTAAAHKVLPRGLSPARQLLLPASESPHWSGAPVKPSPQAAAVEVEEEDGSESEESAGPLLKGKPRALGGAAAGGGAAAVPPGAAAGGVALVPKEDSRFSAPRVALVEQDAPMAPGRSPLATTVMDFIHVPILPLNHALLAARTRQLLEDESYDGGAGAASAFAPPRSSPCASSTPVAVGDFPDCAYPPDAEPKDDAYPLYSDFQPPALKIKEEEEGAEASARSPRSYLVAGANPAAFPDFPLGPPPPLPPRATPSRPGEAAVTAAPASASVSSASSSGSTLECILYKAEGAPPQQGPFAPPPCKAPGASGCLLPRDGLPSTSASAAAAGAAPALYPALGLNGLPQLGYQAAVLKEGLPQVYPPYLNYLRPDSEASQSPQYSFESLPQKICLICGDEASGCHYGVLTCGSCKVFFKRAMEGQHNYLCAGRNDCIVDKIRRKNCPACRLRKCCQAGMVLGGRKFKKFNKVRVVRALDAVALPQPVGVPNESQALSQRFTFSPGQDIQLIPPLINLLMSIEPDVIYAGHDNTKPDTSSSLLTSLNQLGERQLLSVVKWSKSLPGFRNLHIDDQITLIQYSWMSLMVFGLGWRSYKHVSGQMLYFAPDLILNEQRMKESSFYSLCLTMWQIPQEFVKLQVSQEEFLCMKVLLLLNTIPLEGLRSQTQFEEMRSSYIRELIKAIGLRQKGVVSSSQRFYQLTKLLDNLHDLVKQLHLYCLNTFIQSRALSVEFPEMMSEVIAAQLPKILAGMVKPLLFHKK
UniProt P34981: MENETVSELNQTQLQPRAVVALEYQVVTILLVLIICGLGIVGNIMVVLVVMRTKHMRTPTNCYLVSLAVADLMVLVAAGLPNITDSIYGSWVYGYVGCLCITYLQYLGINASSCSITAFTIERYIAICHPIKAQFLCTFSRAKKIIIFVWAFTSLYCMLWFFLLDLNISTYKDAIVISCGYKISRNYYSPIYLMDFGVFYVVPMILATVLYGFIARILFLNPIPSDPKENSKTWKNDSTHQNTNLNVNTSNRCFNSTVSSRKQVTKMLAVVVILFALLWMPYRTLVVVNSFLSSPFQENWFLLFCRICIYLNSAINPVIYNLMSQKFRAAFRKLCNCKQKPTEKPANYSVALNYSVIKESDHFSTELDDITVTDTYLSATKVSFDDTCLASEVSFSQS
UniProt O75469: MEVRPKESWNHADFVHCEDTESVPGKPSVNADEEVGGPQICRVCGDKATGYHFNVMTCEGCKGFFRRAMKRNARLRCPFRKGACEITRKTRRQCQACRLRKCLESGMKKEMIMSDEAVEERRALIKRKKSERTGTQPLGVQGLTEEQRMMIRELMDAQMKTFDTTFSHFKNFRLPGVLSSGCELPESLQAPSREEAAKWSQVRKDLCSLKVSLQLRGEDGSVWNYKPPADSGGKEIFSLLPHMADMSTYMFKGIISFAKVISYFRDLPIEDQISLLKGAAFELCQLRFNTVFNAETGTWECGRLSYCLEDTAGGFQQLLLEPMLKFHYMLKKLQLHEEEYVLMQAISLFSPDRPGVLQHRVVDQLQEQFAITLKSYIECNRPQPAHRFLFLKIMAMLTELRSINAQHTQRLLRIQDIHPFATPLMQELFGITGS
UniProt P03372, whole entry, looked up: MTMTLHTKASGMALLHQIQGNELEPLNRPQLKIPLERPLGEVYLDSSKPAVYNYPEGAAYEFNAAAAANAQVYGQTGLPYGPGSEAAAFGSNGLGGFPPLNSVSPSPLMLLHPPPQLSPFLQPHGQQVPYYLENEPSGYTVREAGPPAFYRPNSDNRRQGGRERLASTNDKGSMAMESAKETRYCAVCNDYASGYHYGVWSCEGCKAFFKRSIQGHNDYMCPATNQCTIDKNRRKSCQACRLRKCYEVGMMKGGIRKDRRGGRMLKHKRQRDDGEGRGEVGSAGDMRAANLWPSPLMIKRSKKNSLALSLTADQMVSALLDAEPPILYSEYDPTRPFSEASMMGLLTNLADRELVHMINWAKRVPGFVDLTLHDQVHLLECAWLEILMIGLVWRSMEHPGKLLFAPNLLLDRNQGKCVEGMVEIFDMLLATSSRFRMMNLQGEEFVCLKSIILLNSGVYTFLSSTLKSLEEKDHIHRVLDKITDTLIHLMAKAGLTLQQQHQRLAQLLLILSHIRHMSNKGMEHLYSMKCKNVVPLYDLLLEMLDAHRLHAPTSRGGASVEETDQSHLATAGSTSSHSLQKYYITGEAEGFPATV
UniProt P22303: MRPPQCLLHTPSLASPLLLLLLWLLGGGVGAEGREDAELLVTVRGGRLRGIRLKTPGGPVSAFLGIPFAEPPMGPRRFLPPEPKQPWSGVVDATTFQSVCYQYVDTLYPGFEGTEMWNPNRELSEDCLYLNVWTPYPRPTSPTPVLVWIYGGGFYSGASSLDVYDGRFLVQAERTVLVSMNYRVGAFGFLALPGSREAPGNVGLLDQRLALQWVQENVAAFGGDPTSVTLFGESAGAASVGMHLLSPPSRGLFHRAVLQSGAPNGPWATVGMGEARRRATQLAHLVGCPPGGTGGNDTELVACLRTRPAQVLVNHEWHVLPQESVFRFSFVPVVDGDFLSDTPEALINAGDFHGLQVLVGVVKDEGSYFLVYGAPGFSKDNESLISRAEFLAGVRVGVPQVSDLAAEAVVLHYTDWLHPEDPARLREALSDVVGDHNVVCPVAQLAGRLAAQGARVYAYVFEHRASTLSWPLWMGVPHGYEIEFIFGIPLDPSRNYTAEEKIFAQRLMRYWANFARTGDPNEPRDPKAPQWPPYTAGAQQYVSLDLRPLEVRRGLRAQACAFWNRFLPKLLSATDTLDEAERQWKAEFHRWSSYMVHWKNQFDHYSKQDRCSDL
UniProt P10635, whole entry, looked up: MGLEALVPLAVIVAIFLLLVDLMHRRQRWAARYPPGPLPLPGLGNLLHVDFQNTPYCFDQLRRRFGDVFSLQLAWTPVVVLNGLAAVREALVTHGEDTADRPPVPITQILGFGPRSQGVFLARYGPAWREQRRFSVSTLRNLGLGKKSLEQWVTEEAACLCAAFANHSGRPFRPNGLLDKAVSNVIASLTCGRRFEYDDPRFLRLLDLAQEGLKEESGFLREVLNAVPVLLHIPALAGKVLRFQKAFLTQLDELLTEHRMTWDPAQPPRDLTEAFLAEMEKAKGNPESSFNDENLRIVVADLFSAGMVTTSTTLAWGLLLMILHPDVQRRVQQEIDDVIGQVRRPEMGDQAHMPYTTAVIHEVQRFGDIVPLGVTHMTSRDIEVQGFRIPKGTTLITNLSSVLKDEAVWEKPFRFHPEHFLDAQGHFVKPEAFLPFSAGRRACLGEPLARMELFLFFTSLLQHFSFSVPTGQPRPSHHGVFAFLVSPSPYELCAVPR

Experiments:
[1] = qHTS assay to identify small molecule agonists of the estrogen receptor beta (ER-beta) signaling pathway - cell viability counter screen (AID 1259380; active = well fitted curve in the direction sought with a large enough effect in the repeat runs; an effect the other way counts as inactive or inconclusive; also: nearly all actives have a fitted effect of over 30% in size); settings: ER-beta-bla HEK293T viability, CellTiter-Glo luminescence, 16 h; at 92.4 µM (top of the series) unless noted
Method in brief: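 Cell viability counter screen: CellTiter-Glo luminescence (30 min, room temperature) measured in the same wells as the beta-lactamase readout, after 16 hr compound exposure at 37C of ER-beta-bla HEK293T cells in 2% charcoal-stripped FBS medium.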

[2] = biological target: Androgen receptor (Homo sapiens) (UniProt P10275); test: qHTS assay to identify small molecule agonists of the androgen receptor (AR) signaling pathway in the presence of an antagonist (AID 1259381); settings: MDA-kb2 MMTV-luciferase, AR agonist + nilutamide, 16 h; also: nearly all actives have a fitted effect of over 15% in size
[3] = qHTS assay to identify small molecule antagonists of the estrogen receptor beta (ER-beta) signaling pathway - cell viability counter screen (AID 1259382; active = well fitted curve in the direction sought with a large enough effect in the repeat runs; an effect the other way counts as inactive or inconclusive;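 also: HEK293T cells carrying ER-beta-UAS-bla reporter stimulated with estradiol; nearly all actives have a fitted effect of over 55% in size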); settings: ER-beta-UAS-bla HEK293T viability, CellTiter-Glo luminescence, 16 h; at 92.4 µM (top of the series) unless noted
Method in brief: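 Cytotoxicity was measured in the same wells by CellTiter-Glo luminescence after 30 min at room temperature. Cells were ER-beta-bla HEK293T in charcoal-stripped serum, given compound together with 1 nM E2 and incubated 16 h at 37C.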

[4] = biological target: Thyrotropin receptor (Homo sapiens) (UniProt P16473); test: qHTS assay to identify small molecule antagonists of the thyroid stimulating hormone receptor (TSHR) signaling pathway (AID 1259385); settings: TSHR-HEK293 cAMP HTRF, TSH-stimulated antagonist mode; at 92.4 µM (top of the series) unless noted; also: nearly all actives have a fitted effect of over 20% in size
[5] = qHTS assay to identify small molecule agonists of the estrogen receptor alpha (ER-alpha) signaling pathway in the presence of an antagonist - cell viability counter screen (AID 1259386; active = well fitted curve in the direction sought with a large enough effect in the repeat runs; an effect the other way counts as inactive or inconclusive; also: nearly all actives have a fitted effect of over 30% in size)
Method in brief: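 Compounds tested at 15 concentrations for 22 h at 37C alongside 10.0nM (final) ICI-182,780 antagonist, in VM7Luc4E2 cells grown in phenol red-free, charcoal-stripped medium. Viability read by CellTiter-Fluor fluorescence after 1 h reagent incubation.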

[6] = biological target: Progesterone receptor (Homo sapiens) (UniProt P06401); test: qHTS assay to identify small molecule antagonists of the progesterone receptor (PR) signaling pathway (AID 1346795; active = well fitted inhibition curve with a large enough effect in the signal ratio in the repeat runs, not every such curve was filed as active; the % refers to the signal ratio)
Method in brief: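 PR-UAS-bla HEK293T cells with beta-lactamase reporter under UAS control, in 2% charcoal-stripped FBS, treated with compounds plus 1 nM promegestone (R5020, final) for 16 hr at 37C. Read-out: FRET beta-lactamase substrate fluorescence after 2 hr at room temperature.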

[7] = qHTS assay to identify small molecule antagonists of the progesterone receptor (PR) signaling pathway - cell viability counter screen (AID 1346798; active = well fitted curve in the direction sought with a large enough effect in the repeat runs; an effect the other way counts as inactive or inconclusive; also: nearly all actives have a fitted effect of over 50% in size)
Method in brief: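 PR-UAS-bla HEK293T cells, 3,000/well in 2% charcoal-stripped FBS medium, dosed with compounds plus R5020 agonist and incubated 16 h at 37C. Viability then measured in the same wells by CellTiter-Glo luminescence after 30 min at RT.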

[8] = qHTS assay to identify small molecule agonists of the progesterone receptor (PR) signaling pathway - cell viability counter screen (AID 1346799); also: nearly all actives have a fitted effect of over 45% in size
Method in brief: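 Counter screen in the PR-UAS-bla HEK293T wells (2% charcoal-stripped FBS, 16 h compound exposure at 37 C) after the bla read. CellTiter-Glo added, 30 min at room temperature, luminescence read as cell viability.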

[9] = qHTS assay to identify small molecule agonists of the TGF-beta/Smad signaling pathway (AID 1346859; active = well fitted activation curve with a large enough effect in the signal ratio in the repeat runs, not every such curve was filed as active; the % refers to the signal ratio); settings: SBE-bla HEK293T, TGF-beta/Smad beta-lactamase reporter, 5 h; at 76.8 µM (top of the series) unless noted
Method in brief: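 SBE-bla HEK293T cells plated overnight, then compound exposure for 5 h at 37 C. Beta-lactamase reporter read with LiveBLAzer B/G FRET substrate after 2 h at room temperature, fluorescence at 405 nm excitation, 460/530 nm emission.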

[10] = biological target: Thyrotropin-releasing hormone receptor (Homo sapiens) (UniProt P34981); test: qHTS assay to identify small molecule antagonists of the thyrotropin-releasing hormone receptor (TRHR) signaling pathway (AID 1346877; active = well fitted inhibition curve with a large enough effect in the repeat runs, not every such curve was filed as active; also: potency is read from the fitted curve at half-maximal effect)
[11] = biological target: Thyrotropin-releasing hormone receptor (Homo sapiens) (UniProt P34981); test: qHTS assay to identify small molecule agonists of the thyrotropin-releasing hormone receptor (TRHR) signaling pathway (AID 1346891); settings: TRHR-HEK293 calcium fluorescence, agonist mode; at 57.6 µM (top of the series) unless noted;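 also: HEK293 cells expressing TRHR with calcium dye readout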
[12] = Caspase-3/7 induction in HepG2 cells by small molecules, qHTS assay (AID 1346978; active = well fitted curve in the direction sought with a large enough effect in the repeat runs; an effect the other way counts as inactive or inconclusive; also: nearly all actives have a fitted effect of over 15% in size); settings: HepG2 caspase-3/7 activation, Caspase-Glo luminescence, 17 h; at 92.4 µM (top of the series) unless noted
Method in brief: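 Wild-type HepG2 cells, 2,000/well, settled 5 hr at 37 C and 5% CO2, then compound-treated for 17 hr; caspase-3/7 activity read by luminescent Caspase-Glo 3/7 after 30 min at room temperature.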

[13] = Caspase-3/7 induction in HepG2 cells by small molecules, qHTS cell viability counter screen (AID 1346981; active = well fitted curve in the direction sought with a large enough effect in the repeat runs; an effect the other way counts as inactive or inconclusive; also: nearly all actives have a fitted effect of over 30% in size)
Method in brief: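 CellTiter-Fluor fluorescence measured viability in the same wells used for Caspase-Glo 3/7. HepG2 (wild type) at 2,000 cells/well were pre-incubated 5 hr, dosed, and given reagent at 16 hr, with 1 hr further at 37C.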

[14] = biological target: Nuclear receptor subfamily 1 group I member 2 (Homo sapiens) (UniProt O75469); test: Human pregnane X receptor (PXR) small molecule agonists, qHTS assay (AID 1346982; active = well fitted curve in the direction sought with a large enough effect in the repeat runs; an effect the other way counts as inactive or inconclusive; also: nearly all actives have a fitted effect of over 35% in size; also: potency is read from the fitted curve at half-maximal effect)
Method in brief: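 Agonist mode: luminescence from ONE-Glo after 24 h compound exposure at 37C in HepG2 cells carrying hPXR-responsive CYP3A4 luciferase, plated in charcoal-stripped serum medium 5 h beforehand.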

[15] = biological target: Estrogen receptor (Homo sapiens) (UniProt P03372); test: qHTS assay to identify small molecule agonists of the estrogen receptor alpha (ER-alpha) signaling pathway in the presence of an antagonist (AID 1259383); settings: VM7Luc4E2 cells, ERE-luciferase, +ICI-182,780, 22 h; at 92.4 µM (top of the series) unless noted; also: top concentration of the series differs between compounds; nearly all actives have a fitted effect of over 15% in size
[16] = qHTS assay to identify small molecule agonists or antagonists of the thyroid stimulating hormone receptor (TSHR) signaling pathway - wild type cell line counter screen (AID 1259384); settings: HEK293 wild type, cAMP HTRF counter-screen, stronger effect = higher value; at 92.4 µM (top of the series) unless noted
Method in brief: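 Wild-type Hek293 cells, 800/well, 18 h at 37C, then compound with Ro20-1724 for 30 min RT. cAMP by HTRF (cAMP-d2/anti-cAMP cryptate), 1 h RT, fluorescence read. 15 concentrations, triplicates.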

[17] = biological target: Acetylcholinesterase (Homo sapiens) (UniProt P22303); test: Acetylcholinesterase (AChE) small molecule antagonists: colormetric cell-based qHTS assay (AID 1347395); also: nearly all actives have a fitted effect of over 30% in size; also: potency is read from the fitted curve at half-maximal effect
Method in brief: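 SH-SY5Y cells attached overnight, exposed to compound 30 min at 37 C, then given DTNB/acetylthiocholine; after 90 min at 37 C, colorimetric thiocholine read gives cellular AChE activity.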

[18] = biological target: Acetylcholinesterase (Homo sapiens) (UniProt P22303); test: Acetylcholinesterase (AChE) small molecule antagonists: enzyme-based qHTS assay (AID 1347397); settings: at 115 µM (top of the series) unless noted; also: nearly all actives have a fitted effect of over 55% in size
Method in brief: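 Colorimetric DTNB read-out of thiocholine released from acetylthiocholine by recombinant human AChE (50 mU/mL as dispensed). Compounds were preincubated 30 min at RT before substrate/DTNB addition, with a 10 min RT reaction.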

[19] = biological target: Acetylcholinesterase (Homo sapiens) (UniProt P22303); test: Acetylcholinesterase (AChE) small molecule antagonists: enzyme-based qHTS assay with human liver microsomes (AID 1347399); settings: Potency: qHTS inhibition; also: nearly all actives have a fitted effect of over 60% in size; also: potency is read from the fitted curve at half-maximal effect
Method in brief: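 Recombinant human AChE (50 mU/mL in the enzyme mix) and human liver microsomes (0.25 mg/mL final) were preincubated with compound and NADPH (0.25 mg/mL final) for 30 min at 37 C. Acetylthiocholine/DTNB was then added; thiocholine was read colorimetrically after 10 min at room temperature.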

[20] = biological target: Cytochrome P450 2D6 (Homo sapiens) (UniProt P10635); test: Cytochrome P450 Family 2 Subfamily D Member 6 (CYP2D6) small molecule antagonists: luciferase reporter qHTS assay (AID 1671196; active = well fitted curve in the direction sought with a large enough effect in the repeat runs; an effect the other way counts as inactive or inconclusive; also: nearly all actives have a fitted effect of over 50% in size; also: potency is read from the fitted curve at half-maximal effect)
Method in brief: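 CYP2D6 activity was followed as luminescence from its luciferin product after a 1 h NADPH-driven reaction at room temperature. Enzyme-substrate mix and compound were pre-incubated for 10 min, and the signal was read 20 min after adding detection reagent.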
% is scaled to controls: 0 for no effect and ±100 for the full control effect.

O=C(Cl)OCCOC(=O)Cl
inactive: activity change, negative = cytotoxicity [1] -2.27% | activation ([2]; at 92.4 µM (top of the series)) 0.0241% | activity change, negative = cytotoxicity [3] 0% | activity change, negative = inhibition [4] 0.873% | Potency [5] | Potency [6] | Potency [7] | Potency [8] | activation [9] 1.14% | Potency [10] | activation [11] -0.523% | caspase activation [12] 0.24% | Potency [13] | Potency [14]

CCC(C)(OOC(C)(C)C)OOC(C)(C)C
inactive: activity change, negative = cytotoxicity [1] 0.479% [at 19 µM] | activity change, negative = cytotoxicity [3] 8.38% [at 19 µM] | activation [15] 1.7% [at 19 µM] | cAMP activity change [16] 3.01% [at 18.9 µM] | activity change, negative = inhibition [4] 0.826% [at 19 µM] | activity change, negative = cytotoxicity [5] 0.637% [at 19 µM] | activity change, negative = inhibition [6] 8.17% [at 18.9 µM] | activity change, negative = cytotoxicity [7] -8.95% [at 18.9 µM] | activity change, negative = cytotoxicity [8] -6.54% [at 19 µM] | activation [9] 4.22% [at 15.8 µM] | activity, negative = inhibition [10] -1.63% [at 10.5 µM] | activation [11] 0.126% [at 11.8 µM] | caspase activation [12] -0.0069% [at 19 µM] | activity change, negative = cytotoxicity [13] 2.28% [at 19 µM] | activation [14] 4.75% [at 19 µM] | activity, negative = inhibition [17] -0.0859% [at 23.6 µM] | activity change, negative = inhibition [18] 0.157% [at 23.6 µM] | activity change, negative = inhibition [19] 0.172% [at 23.6 µM] | activity change, negative = inhibition [20] -2.36% [at 23.6 µM]

CCOP(=S)(CC)Sc1ccccc1 (centres undefined)
inactive: activity change, negative = cytotoxicity [1] -0.342% | activity change, negative = cytotoxicity [3] 1.51% | activation [15] -3.88% | cAMP activity change [16] -6.27% | Potency [5] | Potency [6] | Potency [7] | Potency [8] | activation [9] -0.766% | caspase activation [12] -2.15% | Potency [13] | Potency [14] | activity change, negative = inhibition [18] 2.18%
active: Potency [17] 63 µM | Potency [19] 2.24 µM | Potency [20] 31.6 µM

O=C1C2CC=CCC2C(=O)N1SC(Cl)(Cl)C(Cl)Cl (centres undefined)
inactive: activation ([2]; at 92.4 µM (top of the series)) -9.15% and -11.1% | cAMP activity change [16] -8.78% and -0.313% | activation [9] -7.16% and -6.52% | activation [11] 14.4% and 19.9% | Potency [14]
active: Potency [10] 13.5 µM

Cc1cc([N+](=O)[O-])c(O)c([N+](=O)[O-])c1
inactive: activation ([2]; at 92.4 µM (top of the series)) -3.99% | activation [15] 0.847% | cAMP activity change [16] 7.57% | activity change, negative = inhibition [4] -0.0246% | Potency [7] | caspase activation [12] 2.11% | Potency [14] | Potency [17] | activity change, negative = inhibition [18] 10.9% | Potency [19]

CN(C(=O)Cc1ccccc1)[C@H]1CC[C@@]2(CCCO2)C[C@@H]1N1CCCC1
active: Potency [20] 12.3 µM
inactive: activity change, negative = cytotoxicity [1] 8.03% [at 42.5 µM] | activation ([2]; at 42.5 µM (top of the series)) 0.139% | activity change, negative = cytotoxicity [3] 0.53% [at 42.5 µM] | activation [15] -0.0254% [at 42.5 µM] | cAMP activity change [16] -1.01% [at 42.5 µM] | activity change, negative = inhibition [4] 2.06% [at 42.5 µM] | Potency [6] | Potency [7] | Potency [8] | activation [9] -1.41% [at 35.3 µM] | Potency [10] | activation [11] -0.123% [at 26.5 µM] | caspase activation [12] 2.7% [at 42.5 µM] | Potency [17] | activity change, negative = inhibition [18] -1.76% [at 53 µM] | Potency [19]

CC(C)OP(=S)(OC(C)C)SCCNS(=O)(=O)c1ccccc1
inactive: cAMP activity change [16] 0.306% | activity change, negative = inhibition [4] -0.541% | Potency [5] | activation [9] 0.567% | caspase activation [12] -3.85%
active: Potency [14] 1.54 µM

CCCCOP(OCCCC)OCCCC
inactive: activity change, negative = cytotoxicity [1] 0.45% | activation ([2]; at 92.4 µM (top of the series)) 14.9% | activity change, negative = cytotoxicity [3] 2.19% | activation [15] 0.31% | cAMP activity change [16] 0.108% | activity change, negative = inhibition [4] 1.74% | Potency [5] | Potency [6] | Potency [7] | Potency [8] | activation [9] -0.837% | Potency [10] | activation [11] -0.0674% | caspase activation [12] -1.25% | Potency [13] | Potency [14] | activity change, negative = inhibition [18] -3.92% | Potency [19] | Potency [20]

O=[N+]([O-])c1ccc([N+](=O)[O-])cc1
inactive: activity change, negative = cytotoxicity [3] -20.3% | activation [15] 11% | cAMP activity change [16] 8.78% | activity change, negative = inhibition [4] 8.25% | Potency [7] | activation [9] -1.87% | Potency [10] | activation [11] 1.28% | caspase activation [12] -8.6% | activity change, negative = inhibition [18] 0.132% | Potency [19]
active: Potency [20] 44.8 µM
